Permeability data for macrocyclic peptides

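Conditions beyond the assay type are not listed; see the original paper. Other peptides of the study may be missing here. Peptides that the database sets to -10, its floor, are left out.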

PAMPA measures passive passage through an artificial lipid membrane.
Permeability is given as log10 of P in cm/s; higher (less negative) is more permeable.

{"smiles": "CC(C)C[C@@H]1C(=O)N2CCC[C@H]2C(=O)N[C@H](CC(C)C)C(=O)N[C@@H](Cc2ccccc2)C(=O)N(C)[C@H](C)C(=O)N(C)[C@@H](CC(C)C)C(=O)N1C", "PAMPA (log10 cm/s)": "-4.78"}
{"smiles": "CC(C)C[C@@H]1C(=O)N(Cc2ccccc2)CC(=O)N2CCC[C@H]2C(=O)N(C)[C@H](CC(C)C)C(=O)N[C@@H](Cc2ccccc2)C(=O)N2CCC[C@@H]2C(=O)N(C)[C@@H](C)C(=O)N1C", "PAMPA (log10 cm/s)": "-5.15"}
{"smiles": "CC(C)C[C@@H]1NC(=O)[C@@H](CC(C)C)NC(=O)[C@H](C)NC(=O)[C@H](Cc2ccccc2)NC(=O)[C@@H](CC(C)C)N(C)C(=O)[C@H]2CCCN2C1=O", "PAMPA (log10 cm/s)": "-5.40"}
{"smiles": "CC(C)C[C@@H]1NC(=O)CN(Cc2ccccc2)C(=O)[C@H](C)N(C)C(=O)[C@@H]2CCCN2C(=O)[C@H](Cc2ccccc2)NC(=O)[C@@H](CC(C)C)N(C)C(=O)[C@@H]2CCCN2C1=O", "PAMPA (log10 cm/s)": "-5.64"}
{"smiles": "CC(C)C[C@@H]1NC(=O)[C@H](C)N(C)C(=O)[C@H]2CCCN2C(=O)[C@H](Cc2ccccc2)NC(=O)[C@H](CC(C)C)N(C)C(=O)[C@@H]2CCCN2C(=O)[C@H](CC(C)C)N(C)C1=O", "PAMPA (log10 cm/s)": "-5.01"}
{"smiles": "CC(C)C[C@@H]1NC(=O)C[C@H](Cc2ccccc2)NC(=O)[C@H]2CCCN2C(=O)[C@H](Cc2ccccc2)NC(=O)[C@H](CC(C)C)NC(=O)[C@@H]2CCCN2C(=O)C[C@H](Cc2ccccc2)NC1=O", "PAMPA (log10 cm/s)": "-5.91"}
{"smiles": "CC(C)C[C@@H]1NC(=O)[C@H]2CCCN2C(=O)[C@H](CC(C)C)N(C)C(=O)[C@@H](CC(C)C)NC(=O)[C@H](C)N(C)C(=O)[C@H](Cc2ccccc2)NC1=O", "PAMPA (log10 cm/s)": "-5.49"}
{"smiles": "CC(C)C[C@H]1C(=O)N(Cc2ccccc2)CC(=O)N2CCC[C@H]2C(=O)N(C)[C@@H](CC(C)C)C(=O)N[C@@H](Cc2ccccc2)C(=O)N2CCC[C@@H]2C(=O)N[C@@H](Cc2ccccc2)CC(=O)N1C", "PAMPA (log10 cm/s)": "-5.43"}
{"smiles": "CC(C)C[C@@H]1NC(=O)[C@H]2CCCN2C(=O)C[C@H](Cc2ccccc2)NC(=O)[C@@H](CC(C)C)NC(=O)C[C@H](Cc2ccccc2)NC(=O)[C@H]2CCCN2C(=O)[C@H](Cc2ccccc2)NC1=O", "PAMPA (log10 cm/s)": "-5.88"}
{"smiles": "CC(C)C[C@H]1NC(=O)[C@@H](C)N(C)C(=O)[C@H]2CCCN2C(=O)[C@H](Cc2ccccc2)NC(=O)CN(Cc2ccccc2)C(=O)[C@H]2CCCN2C(=O)CN(Cc2ccccc2)C1=O", "PAMPA (log10 cm/s)": "-6.76"}
{"smiles": "CC(C)C[C@@H]1C(=O)N(C)[C@@H](CC(C)C)C(=O)N2CCC[C@H]2C(=O)N(C)[C@@H](CC(C)C)C(=O)N[C@@H](Cc2ccccc2)C(=O)N2CCC[C@@H]2C(=O)N(C)[C@@H](C)C(=O)N1C", "PAMPA (log10 cm/s)": "-5.04"}
{"smiles": "CC(C)C[C@@H]1NC(=O)C[C@H](Cc2ccccc2)NC(=O)[C@H]2CCCN2C(=O)[C@H](Cc2ccccc2)NC(=O)[C@@H](CC(C)C)N(C)C(=O)[C@H]2CCCN2C(=O)[C@@H](CC(C)C)NC1=O", "PAMPA (log10 cm/s)": "-6.24"}
{"smiles": "CC(C)C[C@H]1NC(=O)[C@H]2CCCN2C(=O)[C@H](CC(C)C)N(C)C(=O)[C@H](CC(C)C)N(C)C(=O)[C@H](C)N(C)C(=O)[C@@H]2CCCN2C(=O)[C@H](Cc2ccccc2)NC1=O", "PAMPA (log10 cm/s)": "-5.68"}
{"smiles": "CC(C)C[C@@H]1NC(=O)[C@@H]2CCCN2C(=O)[C@H](CC(C)C)N(C)C(=O)[C@H](CC(C)C)NC(=O)[C@H](C)N(C)C(=O)[C@H]2CCCN2C(=O)[C@H](Cc2ccccc2)NC1=O", "PAMPA (log10 cm/s)": "-5.33"}

Extract of 2 entries:

{"smiles": "CC(C)C[C@@H]1C(=O)N(Cc2ccccc2)CC(=O)N2CCC[C@H]2C(=O)N(C)[C@H](CC(C)C)C(=O)N[C@@H](Cc2ccccc2)C(=O)N2CCC[C@@H]2C(=O)N(C)[C@@H](C)C(=O)N1C", "PAMPA (log10 cm/s)": "-5.15"}
{"smiles": "CC(C)C[C@@H]1NC(=O)[C@H]2CCCN2C(=O)C[C@H](Cc2ccccc2)NC(=O)[C@@H](CC(C)C)NC(=O)C[C@H](Cc2ccccc2)NC(=O)[C@H]2CCCN2C(=O)[C@H](Cc2ccccc2)NC1=O", "PAMPA (log10 cm/s)": "-5.88"}

Data: CycPeptMPDB; original report Townsend et al. 2020, doi:10.26434/chemrxiv.13335941.v1.